Data as given in US20070191336A1 (priority 2003, published 2007).
pIC50: −log10 of the molar value.

The chains behind the UniProt entries cited, without tags or fusion partners.
UniProt Q16539, whole entry: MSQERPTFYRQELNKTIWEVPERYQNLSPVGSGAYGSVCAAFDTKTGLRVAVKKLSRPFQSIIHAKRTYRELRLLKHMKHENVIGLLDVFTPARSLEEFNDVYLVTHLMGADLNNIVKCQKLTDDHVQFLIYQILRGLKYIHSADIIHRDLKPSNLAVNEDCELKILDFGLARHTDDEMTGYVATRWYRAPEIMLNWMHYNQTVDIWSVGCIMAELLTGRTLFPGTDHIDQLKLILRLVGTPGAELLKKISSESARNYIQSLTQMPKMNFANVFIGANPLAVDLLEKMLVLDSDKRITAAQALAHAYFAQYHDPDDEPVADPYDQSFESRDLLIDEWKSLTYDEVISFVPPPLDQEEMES

Biological target: T1, phospho p-38 alpha kinase (Homo sapiens, UniProt Q16539)
T1 construct: purchased Panvera
Assay: P-38 alpha kinase assay (spectrophotometric, pyruvate kinase/lactate dehydrogenase coupled)
Format: biochemical
Settings: Table 2; rates from […] to 2 h time frame
Method: In this assay, the oxidation of NADH was continuously measured spectrophometrically. […] The reaction was initiated by adding ATP. The absorption at 340 nm was monitored continuously for up to 4 hours at 30° C. on Polarstar Optima plate reader (BMG). The kinase activity (reaction rate) was calculated from the slope at the time frame from 1.5 h to 2 h.
For inhibition determinations, test compounds were incubated with the reaction mixture for ˜5 min before adding ATP to start the reaction. […] IC50 values were calculated from a series of % inhibition values determined at a range of concentrations of each inhibitor using Prism to process the data and fit inhibition curves. Generally, the rates obtained at the time frame of 1.5 h to 2 h were used for these calculations.

pIC50	SMILES
7.26	COc1cccc(-n2nc(C(C)(C)C)cc2NC(=O)Nc2ccc(Cl)cc2)c1 [Example 40, 1-[3-tert-butyl-1-(3-methoxyphenyl)-1H-pyrazol-5-yl]-3-(4-chlorophenyl)urea]
6.15	COC(=O)c1ccc(-n2nc(C(C)(C)C)cc2NC(=O)Nc2ccc(Br)cc2)cc1 [Example 59, methyl 4-{3-tert-butyl-5-[3-(4-bromophenyl)ureido]-1H-pyrazol-1-yl}benzoate]
7.02	CC1(C)C(=O)NN(Cc2cccc(-n3nc(C(C)(C)C)cc3NC(=O)Nc3ccc(Cl)cc3)c2)C1=O [Example 14, 1-(3-tert-butyl-1-{3-[(4,4-dimethyl-3,5-dioxopyrazolidin-1-yl)methyl]phenyl}-1H-pyrazol-5-yl)-3-(4-chlorophenyl)urea]
7.92	COc1cccc(-n2nc(C(C)(C)C)cc2NC(=O)Nc2cccc3ccccc23)c1 [Example 39, 1-[3-tert-butyl-1-(3-methoxyphenyl)-1H-pyrazol-5-yl]-3-(naphthalen-1-yl)urea]
6.76	COC(=O)c1ccc(-n2nc(C(C)(C)C)cc2NC(=O)Nc2ccc(OC)c3ccccc23)cc1 [Example 58, methyl 4-{3-tert-butyl-5-[3-(1-methoxynaphthalen-4-yl)ureido]-1H-pyrazol-1-yl}benzoate]

Same assay, conditions: Table 3; rates from […] to 2 h time frame

SMILES	pIC50
CCOC(=O)CCc1cccc(-n2nc(C(C)(C)C)cc2NC(=O)Nc2ccc(F)cc2)c1 [Example 145, 3-(3-{3-t-butyl-5-[3-(4-fluoro-phenyl)-ureido]-pyrazol-1-yl}-phenyl)-propionic acid ethyl ester]	5.89
CC(C)(C)c1cc(NC(=O)Nc2ccc(Cl)cc2)n(-c2cccc(C(C)(C)O)c2)n1 [Example 197, 1-{5-t-butyl-2-[3-(1-hydroxy-1-methyl-ethyl)-phenyl]-2H-pyrazol-3-yl}-3-(4-chloro-phenyl)-urea]	6.61
CC(C)(C)c1cc(NC(=O)Nc2ccc(Cl)cc2)n(-c2ccc(C(C)(C)O)cc2)n1 [Example 199, 1-{5-t-butyl-2-[4-(1-hydroxy-1-methyl-ethyl)-phenyl]-2H-pyrazol-3-yl}-3-(4-chloro-phenyl)-urea]	6.16
CC(C)(C)c1cc(NC(=O)Nc2cccc3ccccc23)n(-c2ccc(C(C)(C)O)cc2)n1 [Example 198, 1-{5-t-butyl-2-[4-(1-hydroxy-1-methyl-ethyl)-phenyl]-2H-pyrazol-3-yl}-3-naphthalen-1-yl-urea]	6.86
CC(C)(C)c1cc(NC(=O)Nc2ccc(F)cc2)n(-c2cccc(CN3CC(=O)NS3(=O)=O)c2)n1 [Example 162, 1-{5-t-butyl-2-[3-(3-(R)-methyl-1,1,4-trioxo-1λ^6-[1,2,5]thiadiazolidin-2-ylmethyl)-phenyl]-2H-pyrazol-3-yl}-3-naphthalen-1-yl-urea]	6.19
CN1CCN(CCCOc2cccc(-n3nc(C(C)(C)C)cc3NC(=O)Nc3cccc4ccccc34)c2)CC1 [Example 163, 1-(5-t-Butyl-2-{3-{3-(4-methyl-piperazin-1-yl)-propoxy]-phenyl}-2H-pyrazol-3-yl)-3-naphthalen-1-yl-urea]	6.33
CC(Cc1cccc(-n2nc(C(C)(C)C)cc2NC(=O)Nc2cccc3ccccc23)c1)C(=O)O (racemic) [Example 201, 3-{3-[3-t-butyl-5-(3-naphthalen-1-yl-ureido)-pyrazol-1-yl]-phenyl}-2-methyl-propionic acid]	7.54
CCOC(=O)C(C)Cc1cccc(-n2nc(C(C)(C)C)cc2NC(=O)Nc2ccc(Cl)cc2)c1 (racemic) [Example 202, 3-(3-{3-t-butyl-5-[3-(4-chloro-phenyl)-ureido]-pyrazol-1-yl}-phenyl)-2-methyl-propionic acid ethyl ester]	5.72

More lines, now with the values ahead:

pIC50	SMILES
6.96	CC(C)(C)c1cc(NC(=O)Nc2ccccc2F)n(-c2cccc(C#N)c2)n1 [Example 354, 1-[3-t-butyl-1-(3-cyanophenyl)-1H-pyrazol-5-yl]-3-(2-fluorophenyl)urea]
7.39	CC(C)(C)c1cc(NC(=O)Nc2cccc3ccccc23)n(-c2cccc(CN3CC(=O)NS3(=O)=O)c2)n1 [Example 287, 1-(5-t-butyl-2-{3-[5-1,1,4-trioxo-1λ^6-[1,2,5]thiadia-zolidin-2-ylmethyl]-phenyl}-2H-pyrazol-3-yl)-1-naphthylurea]
5.89	CC(C)(C)c1cc(NC(=O)Nc2ccc(Cl)cc2)n(-c2cccc(Cn3c(=O)sn(-c4ccccc4)c3=O)c2)n1 [Example 289, 1-(3-t-butyl-1-(3-((3,5-dioxo-2-phenyl-1,2,4-thiadiazolidin-4-yl)methyl)phenyl)-1H-pyrazol-5-yl)-3-(4-chlorophenyl)urea]
6.45	CC(C)(C)c1cc(NC(=O)Nc2ccc(Cl)cc2)n(-c2ccc(C(O)C(F)(F)F)cc2)n1 (centres unmarked) [Example 209, 1-{5-t-butyl-2-[4-(2,2,2-trifluoro-1-hydroxy-ethyl)-phenyl]-2H-pyrazol-3-yl}-3-(4-chloro-phenyl)-urea]
6.55	CCOC(=O)CCc1ccc(-n2nc(C(C)(C)C)cc2NC(=O)Nc2cccc3ccccc23)cc1 [Example 296, ethyl 3-(4-(3-tert-butyl-5-(3-(naphthalen-1-yl)ureido)-1H-pyrazol-1-yl)phenyl)propanoate]
4.96	CC(C)(C)c1cc(NC(=O)c2ccc3ccccc3c2)n(-c2cccc(CN3CC(=O)NS3(=O)=O)c2)n1 [Example 234]
6.98	CC(C)(C)c1cc(NC(=O)Nc2ccc(Cl)cc2)n(-c2cccc(CN3CC(=O)NS3(=O)=O)c2)n1 [Example 288, 1-(5-t-butyl-2-{3-[5-1,1,4-trioxo-1λ^6-[1,2,5]thiadiazolidin-2-ylmethyl]-phenyl}-2H-pyrazol-3-yl)-3-(4-chloro-phenyl)-urea]
7.89	CC(C)(C)c1cc(NC(=O)Nc2cccc3ccccc23)n(-c2ccc(C(O)C(F)(F)F)cc2)n1 (centres unmarked) [Example 206, 1-{5-t-Butyl-2-[4-(2,2,2-trifluoro-1-hydroxy-ethyl)-phenyl]-2H-pyrazol-3-yl}-3-naphthalen-1-yl-urea]
7.48	CC(C)(C)c1cc(NC(=O)Nc2ccc(Cl)cc2)n(-c2ccc(CO)cc2)n1 [Example 207, 1-[5-t-butyl-2-(4-hydroxymethyl-phenyl)-2H-pyrazol-3-yl]-3-(4-chloro-phenyl)-urea]
6.47	CCOC(=O)CCc1cccc(-n2nc(C(C)(C)C)cc2NC(=O)Nc2cccc3ccccc23)c1 [Example 297, ethyl 3-(3-(3-tert-butyl-5-(3-(naphthalen-1-yl)ureido)-1H-pyrazol-1-yl)phenyl)propanoate]
6.60	CC(C)(C)c1cc(NC(=O)Nc2cccc3ccccc23)n(-c2cccc(CCN3CCOCC3)c2)n1 [Example 300]
7.60	COc1ccc(NC(=O)Nc2cc(C(C)(C)C)nn2-c2cccc(CN3CC(=O)NS3(=O)=O)c2)c2ccccc12 [Example 298, 1-(5-t-butyl-2-{3-[5-1,1,4-trioxo-1λ^6-[1,2,5]thiadiazolidin-2-ylmethyl]-phenyl}-2H-pyrazol-3-yl)-1-(4-methoxynaphthyl)urea]
6.48	CC(Cc1cccc(-n2nc(C(C)(C)C)cc2NC(=O)Nc2ccc(Cl)cc2)c1)C(=O)O (racemic) [Example 203, 3-(3-{3-t-butyl-5-[3-(4-chloro-phenyl)-ureido]-pyrazol-1-yl}-phenyl)-2-methyl-propionic acid]
